The text below walks through data of ChEMBL document CHEMBL5104099, “Recent applications of seven-membered rings in drug design” (Bioorg Med Chem, 2022).

pKi: −log10 of the molar value.

The experiment deals with Human immunodeficiency virus type 1 protease (Human immunodeficiency virus 1, UniProt Q72874). Briefly: Binding affinity to HIV-1 protease assessed as inhibition constant incubated for 60 mins by mass spectrometric analysis.

One may read the pKi as the negative decadic logarithm of the Ki, by convention in mol/L. For the compound `CC(C)CN(C[C@@H](O)[C@H](Cc1ccccc1)NC(=O)O[C@H]1CCOC1)S(=O)(=O)c1ccc(N)cc1` [AMPRENAVIR], the pKi was 10.10.
